According to PubChem BioAssay AID2636 (Johns Hopkins Ion Channel Center, 2010):
This is a selection; strong and weak results do not stand in their true shares. The source made the active and inactive calls.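 How the source made its calls: active means calcium signal cut by more than 3 SD below the full-agonist control yet still positive, in both repeats and the earlier primary screen; inactive means the rest.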

Sequences of proteins named here, by UniProt entry; tags and fusion partners are left off.
UniProt Q9QUQ5, whole entry: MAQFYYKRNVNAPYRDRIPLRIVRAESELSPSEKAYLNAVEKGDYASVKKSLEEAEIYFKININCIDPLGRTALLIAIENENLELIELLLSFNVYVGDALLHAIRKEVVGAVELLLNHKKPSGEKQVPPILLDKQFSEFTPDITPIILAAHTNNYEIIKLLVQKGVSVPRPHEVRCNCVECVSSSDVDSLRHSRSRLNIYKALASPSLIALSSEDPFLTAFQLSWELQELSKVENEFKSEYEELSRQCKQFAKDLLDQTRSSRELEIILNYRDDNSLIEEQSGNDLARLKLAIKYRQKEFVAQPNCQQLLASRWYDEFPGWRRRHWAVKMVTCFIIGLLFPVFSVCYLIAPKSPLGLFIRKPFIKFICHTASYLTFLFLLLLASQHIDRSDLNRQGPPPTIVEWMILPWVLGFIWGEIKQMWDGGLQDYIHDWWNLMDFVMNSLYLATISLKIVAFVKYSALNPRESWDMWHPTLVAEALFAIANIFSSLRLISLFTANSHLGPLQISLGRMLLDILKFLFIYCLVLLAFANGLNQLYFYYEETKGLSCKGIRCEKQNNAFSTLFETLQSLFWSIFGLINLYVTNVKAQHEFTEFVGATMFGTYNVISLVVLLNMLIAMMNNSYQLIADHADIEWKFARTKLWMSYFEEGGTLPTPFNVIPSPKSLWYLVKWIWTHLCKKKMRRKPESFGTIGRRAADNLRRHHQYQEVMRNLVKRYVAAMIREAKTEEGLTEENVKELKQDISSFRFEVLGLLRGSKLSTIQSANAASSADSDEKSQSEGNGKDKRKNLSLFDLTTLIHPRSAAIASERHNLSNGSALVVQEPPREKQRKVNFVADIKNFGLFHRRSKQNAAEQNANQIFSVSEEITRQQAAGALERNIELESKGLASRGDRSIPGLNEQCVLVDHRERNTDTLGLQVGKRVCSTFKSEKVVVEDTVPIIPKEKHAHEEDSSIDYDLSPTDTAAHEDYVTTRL

Each compound was assayed against Short transient receptor potential channel 4 (Mus musculus) (UniProt Q9QUQ5) (assay: inhibitors of mouse TRPC4 channel, confirmation, cell-based, Fluo4, HEK293 TRPC4beta/mu-opioid (AID 2636)). Details: DAMGO, Fluo4 calcium flux, at 10 µM; hits give high values.
With CCN(CC)CCCOC(=O)C(O)(c1ccccc1)c1ccccc1 the inhibition was “inactive”.
CN(C)CCOC(=O)C(O)(c1ccccc1)C1CCCC1 (stereo not drawn) was tested, and the inhibition was active: 68%.
With CN(C)C1(CNC(=O)c2ccc(Cl)c(S(N)(=O)=O)c2)CCCCC1 the inhibition was “inactive”.
